# Assay results published in PubChem BioAssay AID1259422 (The Scripps Research Institute Molecular Screening Center, 2018).
# This is a selection; strong and weak results do not stand in their true shares. Active and inactive are the calls of the source. No stated cut-off is given here; in the data, active means inhibition above about 32%; inactive means the rest.
# Assay: TEAD-YAP interaction inhibition, primary screen, TEAD-YAP interaction inhibitor project, luminescence, HEK-TIYL cells (AID 1259422);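 further: 0% = median of test compound wells and 100% = reference inhibitor wells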
# Conditions: TEAD-Gal4/YAP UAS-luciferase luminescence, at 9.12 µM, active compounds read high
row,SMILES,inhibition
1,CCOC(=O)c1ccccc1OP(=O)(OCC)SCC(C)C (centres undefined),inactive: -7.33%
2,Cc1c([N+](=O)[O-])c([N+](=O)[O-])nn1CC(=O)Nc1cc(O)cc([N+](=O)[O-])c1,inactive: 5%
3,CCc1nc2c(n1)c1c(non1O)c1c2no[n+]1[O-],inactive: 2.81%
4,O=C(OC1CN2CCC1CC2)c1cccc(F)c1 (centres undefined),inactive: 1.04%
5,O=P(/N=C(/N1CCOCC1)C(Cl)(Cl)Cl)(N1CCOCC1)N1CCOCC1,inactive: 5.91%
6,O=C(COC(=O)C(O)(c1ccccc1)c1ccccc1)NCc1cccs1,inactive: -0.1%
7,CC(C)OC(=O)NC(SC#N)C(Cl)(Cl)Cl (centres undefined),inactive: 12.1%
8,N=C(N)SCC(Br)CN1C(=O)c2ccccc2C1=O (centres undefined),inactive: -1.25%
9,O=[N+]([O-])c1cc([N+](=O)[O-])c2nc(-c3ccc([N+](=O)[O-])o3)[nH]c2c1,inactive: -16.9%
10,O=C(COC(=O)C(O)(c1ccccc1)c1ccccc1)NCc1ccc2c(c1)OCO2,inactive: 8.2%
11,CCOP(=O)(NNc1ccccc1)OCC,inactive: -2.75%
12,Cn1c(SCC(=O)c2ccccc2OC(F)F)nc2ccccc21,inactive: -2.68%
13,ClCCN1CCn2c1nc1ccccc12,inactive: -10.9%
14,CC(C)NC(=O)N(Cc1ccco1)C1CCN(CCc2ccccn2)CC1,inactive: -0.82%
15,Cc1cc(NP2(=O)C=C(c3ccccc3)OC(c3ccccc3)=C2)n[nH]1,inactive: 3.58%
16,CCOP(=S)(OCC)c1cccc(C(=O)O)c1,inactive: -8.26%
17,O=[N+]([O-])c1cc([N+](=O)[O-])c(SCCNc2ccccc2)c([N+](=O)[O-])c1,inactive: 0.6%
18,CC(C)(C)C(=O)NC(Sc1ccncn1)C(Cl)(Cl)Cl (centres undefined),inactive: 1.95%
19,C/C(=N\Nc1ccc([N+](=O)[O-])cc1[N+](=O)[O-])c1cccc([N+](=O)[O-])c1,inactive: -4.23%
20,CN1C(=O)C2C(NC(=NCCN3CCOCC3)N2C)N(C)C1=O (centres undefined),inactive: 15%

row,SMILES,inhibition
1,Cc1c(Nc2ccc([N+](=O)[O-])cc2[N+](=O)[O-])cccc1[N+](=O)[O-],inactive: 0.56%
2,C[n+]1c2n(c3ccccc31)CC(Cl)CS2 (centres undefined),inactive: -2.77%
3,O=C(c1ccc2c(c1)OCO2)N(Cc1ccco1)C1CCN(CCc2ccccn2)CC1,inactive: -6.89%
4,O=[N+]([O-])c1cc(/C=N/N=C/c2cc([N+](=O)[O-])cc([N+](=O)[O-])c2O)c(O)c([N+](=O)[O-])c1,inactive: -2.09%
5,CCOP(=O)(Nc1ccc(Br)cc1)OCC,inactive: 1.27%
6,CCCCOP(=O)(OCCCC)N(CC)CC,inactive: 0.69%
7,CC(=O)N(Cc1ccco1)C1CCN(CCc2cccs2)CC1,inactive: 3.91%
8,Nc1c([N+](=O)[O-])cc(C(=O)c2cc([N+](=O)[O-])c(N)c([N+](=O)[O-])c2)cc1[N+](=O)[O-],inactive: -13.5%
9,CCOc1ccc(NC(=O)c2cc([N+](=O)[O-])cc([N+](=O)[O-])c2)c([N+](=O)[O-])c1,inactive: 0.4%
10,ClC(Cl)(Cl)C1=NP2(=NC(c3ccccc3)=N1)OCCCO2,inactive: 4.18%
11,CCN/N=C/c1c([N+](=O)[O-])cc([N+](=O)[O-])cc1[N+](=O)[O-],inactive: 2.01%
12,CC(C)OP(=O)(OC(C)C)N1CCCCC1,inactive: -0.74%
13,CCOc1ccc(S(=O)(=O)N(CCCl)CCCl)cc1,inactive: -3.09%
14,O=C(OC1CN2CCC1CC2)c1cccc(Cl)c1 (centres undefined),inactive: 14.7%
15,CCOC(=O)C(C)NC(=O)CSP(=O)(OCC)OCC (centres undefined),inactive: 14.1%
16,COC(=O)N(c1ccccc1)P1OCC(C)O1 (centres undefined),inactive: -1.25%
17,Nc1nonc1OCc1nonc1COc1nonc1N,inactive: 0.39%
18,CC(C)NC(=O)N(Cc1cccnc1)C1CCN(CCc2cccs2)CC1,inactive: -4.18%
19,O=[N+]([O-])c1ccc(N/N=C/C=C/c2ccc([N+](=O)[O-])o2)c([N+](=O)[O-])c1,inactive: 12.8%
20,COc1ccc(S(=O)(=O)N(CCCl)CCCl)cc1,inactive: -5.13%

row,SMILES,inhibition
1,COc1ccc(CCN2CCC(N(Cc3ccco3)C(=O)c3cccc(C#N)c3)CC2)cc1,inactive: 0.43%
2,Cc1ccc(NP(=O)(OCC(C)C)OCC(C)C)nc1,inactive: 4.66%
3,O=C(N/N=C/c1ccc([N+](=O)[O-])o1)c1cc([N+](=O)[O-])cc([N+](=O)[O-])c1,inactive: 4.05%
4,CCOP(=O)(Nc1cccc(F)c1)OCC,inactive: 7.04%
5,CNC(=O)c1nsnc1NCCCl,inactive: 5.25%
6,CC1Cc2ccccc2N1C(=O)COC(=O)C(O)(c1ccccc1)c1ccccc1 (centres undefined),inactive: -14.1%
7,O=P(/C=C(\Cl)c1ccccc1)(/C=C(\Cl)c1ccccc1)Nc1nncs1,inactive: -1.21%
8,CC(C)NC(=O)N(Cc1ccco1)C1CCN(CCc2cccs2)CC1,inactive: -12.5%
9,O=C(Nc1cccc(F)c1)N(Cc1ccco1)C1CCN(CCc2ccccn2)CC1,inactive: 0.04%
10,BrCC1Cn2c(nnc2-c2cccnc2)S1 (centres undefined),inactive: -1.6%
11,COc1ccc(/C=C2/C(=O)NC(=O)N(Cc3ccco3)C2=O)c(OC)c1,inactive: -1.88%
12,O=C(Nc1c(Cl)cc([N+](=O)[O-])cc1[N+](=O)[O-])c1ccc([N+](=O)[O-])cc1,active: 56%
13,COc1ccccc1OP(=O)(Nc1ccccn1)Oc1ccccc1OC,inactive: 27.9%
14,CCc1cc2c[n+](C3CCCCC3)sc2s1,inactive: -4.65%
15,CC(=O)OC1CN2CCC1C(c1ccccc1)C2 (centres undefined),inactive: 0.01%
16,O=[N+]([O-])c1cc([N+](=O)[O-])c(NCCCO)c([N+](=O)[O-])c1,inactive: -15.2%
17,C/C(=N\Nc1ccc([N+](=O)[O-])cc1[N+](=O)[O-])c1ccc([N+](=O)[O-])cc1,inactive: 10.8%
18,O=C(Nc1cccc(F)c1)N(Cc1ccco1)C1CCN(CCc2cccs2)CC1,inactive: -1.95%
19,O=C(COc1ccccc1[N+](=O)[O-])N/N=C/c1cc([N+](=O)[O-])cc([N+](=O)[O-])c1O,inactive: -6.68%
